Laboratory results: patent US11498974 (BIOARCTIC, dated 2022)

Experiments:
RmAb158-scFv8D3 [1] = test: inhibition ELISA: serially diluted Aβ monomers pre-incubated with 50 ng/ml RmAb158-scFv8D3, then on Aβ protofibril coated plate
RmAb158 = test: inhibition ELISA with RmAb158, written as printed; monomers and protofibrils are probably swapped in the sentence
RmAb158-scFv8D3 [2] = test: inhibition ELISA: serially diluted Aβ protofibrils pre-incubated with 50 ng/ml RmAb158-scFv8D3, then on Aβ protofibril coated plate

“Aβ monomers (from UniProt P05067 672-711) (peptide)” gave an IC50 (RmAb158-scFv8D3 [1]) of 400 nM and an IC50 (RmAb158) of 1.2 nM.
In the case of “Aβ protofibrils (from UniProt P05067 672-713) (peptide)”, the IC50 (RmAb158) is reported as 1200 nM and the IC50 (RmAb158-scFv8D3 [2]) is reported as 0.85 nM.
